Patent US10406157B2, “Tetrahydropyridopyrazine modulators of GPR6” (Takeda Pharmaceutical Company Limited, priority 2017, dated 2019)

Sequences of proteins named here, by UniProt entry; tags and fusion partners are left off. A change or cut given only in a name is not applied to a line headed by its entry.
UniProt Q12809: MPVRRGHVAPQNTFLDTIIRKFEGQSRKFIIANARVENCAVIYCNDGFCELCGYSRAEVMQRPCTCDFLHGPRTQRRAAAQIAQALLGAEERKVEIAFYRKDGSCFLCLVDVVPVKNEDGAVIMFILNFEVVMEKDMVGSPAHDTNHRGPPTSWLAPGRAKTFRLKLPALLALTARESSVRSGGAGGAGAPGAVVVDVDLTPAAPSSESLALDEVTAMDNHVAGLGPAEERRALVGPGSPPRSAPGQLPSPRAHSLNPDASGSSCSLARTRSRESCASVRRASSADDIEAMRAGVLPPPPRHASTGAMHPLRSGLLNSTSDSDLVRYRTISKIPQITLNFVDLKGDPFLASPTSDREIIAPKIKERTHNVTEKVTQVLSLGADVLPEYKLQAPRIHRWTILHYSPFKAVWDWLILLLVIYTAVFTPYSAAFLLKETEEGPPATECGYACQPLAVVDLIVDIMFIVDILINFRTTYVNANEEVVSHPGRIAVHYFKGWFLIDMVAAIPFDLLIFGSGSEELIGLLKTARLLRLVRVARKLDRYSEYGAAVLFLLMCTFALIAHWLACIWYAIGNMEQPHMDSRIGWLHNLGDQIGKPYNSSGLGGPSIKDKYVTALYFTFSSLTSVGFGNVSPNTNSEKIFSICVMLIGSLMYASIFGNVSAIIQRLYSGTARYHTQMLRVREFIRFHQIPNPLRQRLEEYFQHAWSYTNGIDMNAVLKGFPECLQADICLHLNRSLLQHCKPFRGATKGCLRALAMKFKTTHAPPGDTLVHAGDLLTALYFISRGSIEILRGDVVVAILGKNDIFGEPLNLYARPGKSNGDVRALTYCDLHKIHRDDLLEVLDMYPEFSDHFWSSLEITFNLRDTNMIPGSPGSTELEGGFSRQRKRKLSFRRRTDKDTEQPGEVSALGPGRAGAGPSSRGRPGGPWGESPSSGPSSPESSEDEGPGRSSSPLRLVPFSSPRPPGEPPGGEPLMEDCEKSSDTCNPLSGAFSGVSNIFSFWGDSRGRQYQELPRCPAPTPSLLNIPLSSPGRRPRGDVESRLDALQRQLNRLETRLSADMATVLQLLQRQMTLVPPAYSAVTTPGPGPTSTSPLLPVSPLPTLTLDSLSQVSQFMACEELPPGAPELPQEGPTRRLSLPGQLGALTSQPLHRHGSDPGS

Molecular target: human hERG (Homo sapiens (Human), UniProt Q12809)
Assay: Inhibition of human hERG via automated whole cell patch clamp
Type: cell-based
Details: safety margin for the free drug (SM-free)
Method: An automated whole cell patch-clamp system (QPATCH® 16) is used to record outward potassium currents from a single cell. The assay employs CHO-K1 (Chinese Hamster Ovary) cells stably transfected with human hERG cDNA. The cells are harvested by trypsinization and maintained in serum-free medium at room temperature before recording. The cells are washed and re-suspended in the extracellular solution before being applied to the automated patch-clamp sites. The test solutions are prepared in the aqueous extracellular solution (137 mM NaCl, 4 mM KCl, 1.8 mM CaCl2), 1 mM MgCl2, 10 mM D(+)-Glucose, 10 mM HEPES, pH adjusted to 7.4 with NaOH) on the day of patch-clamp assay. Seven concentrations (0.03, 0.1, 0.3, 1, 3, 10, and 30 μM) of the test compound are used to determine IC50. The aqueous intracellular solution contains 130 mM KCl, 10 mM NaCl, 1 mM MgCl2, 10 mM EGTA, 5 mM MgATP, and 10 mM HEPES (pH adjusted to 7.2 with KOH).
After whole cell configuration is achieved, the cell is held at −80 mV. A 50 ms pulse to −40 mV is delivered to measure the leaking current, which is subtracted from the tail current on-line. […] The percent inhibition of hERG channel is calculated by comparing the tail current amplitude before and after application of the compound (the current difference is normalized to the control).

Structure (SMILES) | (hERG IC50)/Ki
CC(=O)N1CCc2nc(N3CCC(Oc4ccc(F)cc4F)CC3)c(N[C@H]3CCOC3)nc2C1 [Compound A, (S)-1-(2-(4-(2,4-difluorophenoxy)piperidin-1-yl)-3-((tetrahydrofuran-3-yl)amino)-7,8-dihydropyrido[3,4-b]pyrazin-6(5H)-yl)ethan-1-one, reference compound] | 84
CC(=O)N1CCc2nc(N3CCC(Oc4ccc(F)cc4F)CC3)c(N[C@@H]3CCOC3)nc2C1 [Formula 1, (R)-1-(2-(4-(2,4-difluorophenoxy)piperidin-1-yl)-3-((tetrahydrofuran-3-yl)amino)-7,8-dihydropyrido[3,4-b]pyrazin-6(5H)-yl)ethan-1-one] | 358
